In paper PMC4906314, “Direct interaction of beta-amyloid with Na,K-ATPase as a putative regulator of the enzyme function” (Scientific Reports, 2016):

Assays:
[1] = biological target: Na,K-ATPase (α1β1 isozyme) from duck salt glands (duck)
[2] = biological target: Na,K-ATPase (α1β1 isozyme) from duck salt glands (duck); assay: ITC; MicroCal iTC200, 25 °C, 10 mM imidazole pH 7.5, 130 mM NaCl, 30 mM KCl, 3 mM MgCl2; Aβ(1-42) (50-200 μM) in the syringe, Na,K-ATPase (5-20 μM) in the cell; one set of binding sites

Work on Synthetic peptide Aβ(1-42) yielded a hydrolytic activity of purified Na,K-ATPase (ouabain-sensitive ATP cleavage, 37 °C, 3 mM ATP); Aβ(1-42) concentration at half activity (IC50) [1] of 24 µM, a Kd [2] of 3 µM and a dH [2] of -13.2 kcal/mol. For the same substance, the stoichiometry N [2] was 1.1.
